Among the data in PubChem BioAssay AID1850 (Southern Research Specialized Biocontainment Screening …, 2009) are inhibition values, retold here.

Each structure is given as a SMILES string. The list shows a part of the results, in another mix than the full data. Entries with a potency or affinity are not part of this list. The source made the active and inactive calls. How the calls were made is not given here.

The nature of this assay: Inhibition of PhoP regulon, Salmonella typhi GFP reporter cells, confirmation, 4 h (AID 1850).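 Further: 0% = induced wells with vehicle and 100% = uninduced wells.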 To be noted: Salmonella Typhi PhoP-promoter GFP reporter, fluorescence, at 50 µM, hits give high values.
On to `CCOP(C)(=S)SCC(=O)NC(C)(CC)C(=O)O` (centres undefined), for which the inhibition is inactive: -4.18%.
For `CP(=O)(Nc1ccc(SC(F)(F)F)cc1)Oc1ccc(F)cc1` (centres undefined) the value was inactive: -3.23%; for `O=[N+]([O-])c1cc([N+](=O)[O-])c(NCC2CCS(=O)(=O)C2)c([N+](=O)[O-])c1` (centres undefined), inactive: 2.24%; for `O=[N+]([O-])c1ccc(OP2(=O)COCCO2)cc1` (centres undefined), inactive: 13.8%.
Regarding `COc1ccc(NP(C)(=O)Oc2ccccc2OC)cc1` (centres undefined), the inhibition is inactive: 6.47%.
For `CN(C)CCOC(=O)C(O)(c1ccccc1)C1CCCCC1` (centres undefined) the value was inactive: 7.09%; for `COc1ccc(OP(C)(=O)Nc2cccc(Br)c2)cc1` (centres undefined), inactive: -9.07%; for `CP(=O)(OC12CC3CC(CC(C3)C1)C2)OC12CC3CC(CC(C3)C1)C2`, inactive: 12.4%.
Consider `CCOC(=O)c1ccc(NP(C)(=O)Oc2ccc(Cl)cc2)cc1` (centres undefined), for which the inhibition was inactive: -3.59%.
For `Nc1ccc2c(ccc3cccnc32)n1.O=[N+]([O-])c1cc([N+](=O)[O-])c(O)c([N+](=O)[O-])c1` the value was inactive: -9.21%.
For `CN(C)C(=O)c1c([N+](=O)[O-])cc([N+](=O)[O-])cc1[N+](=O)[O-]` the value was inactive: 6.9%.
Consider `CP(=O)(Nc1ccc(Cl)cc1)Oc1ccc(F)cc1` (centres undefined), for which the inhibition was inactive: -10.2%.
For `CC(C)(C)c1ccc(OP(C)(=O)O)cc1` the value was inactive: -0.41%.
Consider `COc1ccccc1OP(C)(=O)Nc1ccccc1Br` (centres undefined), for which the inhibition was inactive: 3.12%.
The result for `CCc1ccc(OP(C)(=O)Nc2cccnc2)cc1` (centres undefined) reads inactive: 0.92%; that for `CP(=O)(Oc1ccccc1)N1CCOC1=O` (centres undefined), inactive: 2.01%; that for `O=C(OCCCN1CCCC1)C(O)(c1ccccc1)C1CCCCC1` (centres undefined), inactive: 7.55%.
For `COc1ccccc1OP(C)(=O)Nc1c(C)n(C)n(-c2ccccc2)c1=O` (centres undefined), the inhibition is inactive: -5.6%.
For `COc1ccc(OP(C)(=O)Nc2ccc(Br)cc2)cc1` (centres undefined) the value was inactive: -4.29%.
Take `CCN(CC)CC(O)COC(=O)C(O)(c1ccccc1)C1CCCCC1` (centres undefined): the inhibition is inactive: 1.82%.
For `CCc1ccc(OP(C)(=O)O)cc1` the value was inactive: -10.5%; for `COc1ccccc1OP(C)(=O)Nc1ccc(C)cc1C` (centres undefined), inactive: -4.21%; for `CP(=O)(Nc1ccccn1)Oc1ccccc1` (centres undefined), inactive: 5.06%.
The result for `O=[N+]([O-])c1cc([N+](=O)[O-])c(Nc2ccccn2)c([N+](=O)[O-])c1` reads inactive: 4.93%.
With `Cc1c(NP(C)(=O)Oc2ccc(C(C)C)cc2)c(=O)n(-c2ccccc2)n1C` (centres undefined), the inhibition was inactive: 4.77%.
As to `CN(C)CCOC(=O)C(O)(c1ccccc1)C1CCCC1` (centres undefined), the inhibition is inactive: -1.27%.
The result for `COc1ccc(OP(C)(=O)Nc2ccccn2)cc1` (centres undefined) reads inactive: -3.51%; that for `COc1ccccc1OP(C)(=O)Nc1ccc(Br)cc1` (centres undefined), inactive: -18%; that for `CP(=O)(OCCOc1ccccc1)OCCOc1ccccc1`, inactive: 0.94%.
For `CP(=O)(Nc1ccc(Cl)cc1Cl)Oc1ccccc1` (centres undefined) the value was inactive: -2.13%; for `Cc1nc2ccc3ccccc3c2o1.O=[N+]([O-])c1cc([N+](=O)[O-])c(O)c([N+](=O)[O-])c1`, inactive: 1.37%; for `COc1ccc(OP(C)(=O)Nc2ccccc2Br)cc1` (centres undefined), inactive: -4.3%.
For `COc1ccccc1OP(C)(=O)Nc1ccc(C)c(C)c1` (centres undefined) the value was inactive: 12.6%; for `Cc1cc(C)cc(OP(C)(=O)Nc2cccc(C(F)(F)F)c2)c1` (centres undefined), inactive: 12.1%.

Usually inhibition stands for the relative decrease from the control value, in per cent.
